These are literature values, as cited in patent US20180128811A1, “ASPIRIN RESPONSE AND REACTIVITY TEST AND ASPIRIN COMPLIANCE TEST USING SYNTHETIC COLLAGEN” (JNC Corporation, priority 2012, published 2018).

The conditions of the data set: higher doses (more than 4.0 g); cited from earlier work.

As for acetylsalicylic acid [aspirin], the Half-life was 15 to 30 h.
